By UniProt entry, the sequences of proteins in these tests, tags left out.
UniProt Q99705, whole entry E4Q/A5T: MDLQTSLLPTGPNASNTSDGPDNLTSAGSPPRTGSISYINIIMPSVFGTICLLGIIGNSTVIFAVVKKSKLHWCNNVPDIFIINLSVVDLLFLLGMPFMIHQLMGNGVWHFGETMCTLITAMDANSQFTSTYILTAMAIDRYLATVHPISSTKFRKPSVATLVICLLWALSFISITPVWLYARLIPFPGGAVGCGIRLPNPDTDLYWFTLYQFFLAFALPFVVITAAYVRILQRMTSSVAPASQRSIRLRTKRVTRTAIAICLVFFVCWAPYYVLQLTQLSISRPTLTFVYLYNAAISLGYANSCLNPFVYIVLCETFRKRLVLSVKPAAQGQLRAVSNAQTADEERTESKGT

This assay addresses human melanin concentrating hormone receptor (MCHR1), mutated (E4Q, A5T) hMCHR1 (Homo sapiens (Human), UniProt Q99705, A5T/E4Q). The assay can be described thus: Radioligand binding assay for assessment of MCHR1 activity ([125I]-MCH competition, HEK-293 membranes). The conditions noted are these: membranes from HEK-293 cells expressing mutated (E4Q, A5T) hMCHR1; 0.06-0.1 nM [Phe13,[125I]Tyr19]-MCH.
As for `CCc1cc(N2CC[C@H](Oc3ccc(C4CC4)cc3)C2=O)ccc1OCCNS(C)(=O)=O` [Example 131], the Ki (as a rule, a measure of affinity in units of concentration, obtained from inhibition or displacement) is 14 nM.
The value for `CCc1cc(N2CC[C@H](Oc3ccc(C4CC4)cc3)C2=O)ccc1OCCNC(C)=O` [Example 132] was 13 nM; that for `CCc1cc(N2CC[C@H](Oc3ccc(C4CC4)cc3)C2=O)ccc1OCCN(C)S(C)(=O)=O` [Example 133] was 5 nM.
The value for `COc1cc(N2CC[C@@H](Oc3ccc(C4CC4)cc3)C2=O)ccc1O[C@H]1CCNC1` [Example 138, (R)-3-(4-Cyclopropylphenoxy)-1-(3-methoxy-4-((S)-pyrrolidin-3-yloxy)phenyl)pyrrolidin-2-one] was 684 nM; that for `COc1cc(N2CC[C@H](Oc3ccc(C4CC4)cc3)C2=O)ccc1O[C@H]1CCNC1` [Example 139, (S)-3-(4-Cyclopropylphenoxy)-1-(3-methoxy-4-((S)-pyrrolidin-3-yloxy)phenyl)pyrrolidin-2-one] was 5 nM; that for `COc1cc(N2CC[C@@H](Oc3ccc(C4CC4)cc3)C2=O)ccc1O[C@@H]1CCNC1` [Example 140] was 130 nM.
Under `COc1cc(N2CC[C@H](Oc3ccc(C4CC4)cc3)C2=O)ccc1O[C@@H]1CCNC1` [Example 141] stands 2 nM; under `COc1cc(N2CC=C(Oc3ccc(C4CC4)cc3)C2=O)ccc1OCCN1CC[C@@H](NC(=O)C(F)(F)F)C1` [Example 153], 0.4 nM; under `COc1cc(N2CC=C(Oc3ccc(C4CC4)cc3)C2=O)ccc1OCCN1CC(C#N)C1` [Example 159], 2.7 nM.
Compound `COc1cc(N2CC=C(Oc3ccc(C4CC4)cc3)C2=O)ccc1OCCN1CC(S(C)(=O)=O)C1` [Example 160] showed a Ki of 2.3 nM.
Under `COc1cc(N2CC=C(Oc3ccc(C4CC4)cc3)C2=O)ccc1OCCN1CC(C)(OC)C1` [Example 161] stands 0.5 nM; under `COc1cc(N2CC=C(Oc3ccc(C4CC4)cc3)C2=O)ccc1OCCN1CC(NC(=O)OC(C)(C)C)C1` [Example 163], 0.4 nM.
For `CCc1cc(N2CC=C(Oc3ccc(C4CC4)cc3)C2=O)ccc1OCCN1CC(C)(O)C1` [Example 169], the Ki was 0.5 nM.
`CCc1cc(N2CC=C(Oc3ccc(C4CC4)cc3)C2=O)ccc1OCCN1CC(O)(C(F)(F)F)C1` [Example 170] returned a Ki of 5.9 nM.
As for `CCc1cc(N2CC=C(Oc3ccc(C4CC4)cc3)C2=O)ccc1OCCN1CC(NC(=O)OC(C)(C)C)C1` [Example 171], the Ki is 0.6 nM.
The compound `CCc1cc(N2CC=C(Oc3ccc(C4CC4)cc3)C2=O)ccc1OCCN1CC(N)C1` [Example 172] came in with a Ki of 1.4 nM.
Under `CCc1cc(N2CC=C(Oc3ccc(C4CC4)cc3)C2=O)ccc1OCCN1CC[C@H](O)C1` [Example 173] stands 0.9 nM.
The compound `CCc1cc(N2CC=C(Oc3ccc(C4CC4)cc3)C2=O)ccc1OCCN1CC[C@@H](O)C1` [Example 174] showed a Ki of 1.3 nM.
As to `CCc1cc(N2CC=C(Oc3ccc(C4CC4)cc3)C2=O)ccc1OCCN1CCOCC1` [Example 175], the affinity, expressed as Ki, was 2.2 nM.
Under `CCc1cc(N2CC=C(Oc3ccc(C4CC4)cc3)C2=O)ccc1OCCN1CCC[C@H](O)C1` [Example 176] stands 0.7 nM; under `CCc1cc(N2CC=C(Oc3ccc(C4CC4)cc3)C2=O)ccc1OCCN1CCCCC1` [Example 177], 0.9 nM.
The compound `O=C1C(Oc2ccc(C3CC3)cc2)=CCN1c1ccc(OCCN2CCCC2)c(OC(F)F)c1` [Example 184, 3-(4-Cyclopropylphenoxy)-1-(3-(difluoromethoxy)-4-(2-(pyrrolidin-1-yl)ethoxy)phenyl)-1H-pyrrol-2(5H)-one] returned a Ki of 0.4 nM.
Under `CS(=O)(=O)C1CN(CCOc2ccc(N3CC=C(Oc4ccc(C5CC5)cc4)C3=O)cc2OC(F)F)C1` [Example 186] stands 5.2 nM; under `O=C1C(Oc2ccc(C3CC3)cc2)=CCN1c1ccc(OCCN2CC(O)(C(F)(F)F)C2)c(OC(F)F)c1` [Example 187], 5.4 nM.
Under `N#CC1CN(CCOc2ccc(N3CC=C(Oc4ccc(C5CC5)cc4)C3=O)cc2OC(F)F)C1` [Example 188] stands 2.7 nM.

These data come from patent publication US9499482B2, “Pyrrolone or pyrrolidinone melanin concentrating hormone receptor-1 antagonists” (BRISTOL-MYERS SQUIBB COMPANY, priority 2012, dated 2016).
